Only a part is listed here, and it is no random draw. Results filed as inconclusive are left out. Some salts or complexes appear as unconnected parts, following the source record. Active and inactive are the calls of the source. Calls follow the shape of the dose curve; as a rule, active = well fitted activation curve with a large enough effect; inconclusive = small, poorly fitted or top-dose-only effect; inactive = no such curve, though single readings can be large or run the other way.

This experiment in a line: qHTS for Suppressors of FUS Proteinopathy: Primary screen using FUS-linked yeast assay.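 Also: plate controls were DMSO vehicle for no effect and reference control for full effect; nearly all actives have a fitted effect of over 55% in size.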 Particulars: S. cerevisiae FUS-expressing, OD600, 24 h; at 76.6 µM (top of the series). The source says: Several widespread neurodegenerative diseases, including Alzheimer disease, Huntington disease, Frontotemporal Lobar Degeneration (FTLD) and Amyotrophic Lateral Sclerosis (ALS), share a common pathological feature, namely accumulation of specific protein aggregates in diseased tissue. These diseases which is associated with protein misfolding (proteinopathies) have become increasingly problematic as the population ages and life expectancies are extended. Most proteinopathies are currently incurable, a situation confounded by the fact that the basis of neurodegeneration is generally poorly understood. There exists urgent and significant need to find therapeutics that can inhibit the toxicity associated with protein aggregation. A novel approach to understand the underlying mechanisms of neurodegenerative diseases has recently emerged in which the disease conditions are modeled in the yeast (Saccharomyces cerevisiae), a tractable eukaryotic organism with conserved protein quality control mechanisms. Yeast offers quick and reliable genetic manipulations and can be easily tailored to high-throughput screening (HTS).
For this project, a yeast model of the FUS proteinopathies (a spectrum of neurodegenerative diseases that include ALS and a subtype of FTLD) was generated and employed. The cytoplasmic accumulation of the DNA/RNA-binding protein FUS (also known as TLS) is causative to both familial and sporadic forms of ALS and FTLD. This yeast model recapitulates neuronal pathology by showing severe cytotoxicity associated with cytoplasmic accumulation of FUS aggregates and a specific interaction between FUS and TDP-43, another ALS-associated protein. […] Specifically, the cellular accumulation of misfolded FUS that disrupts RNA homeostasis in both yeast and higher eukaryotes. This model was validated to be suitable for quantitative HTS (qHTS) use for finding genetic or chemical factors that restore growth. […] Identified compounds that inhibits FUS-yeast toxicity is flagged, re-acquired, and validated for further investigation and optimization.
NIH Chemical Genomics Center [NCGC]
NIH Molecular Libraries Probe Production Centers Network [MLPCN]
Assay Submitter (PI): Frank Shewmaker PhD, Uniformed Services University of the Health Sciences
Compound CP55940 was used as the positive control. Column 1 was treated with CP55940 titration from 92uM (final concentration, 1:2 dilution), while Column 2 was treated with top dose 92uM. Columns 3 and 4 were treated with DMSO only as negative control to assess background and noise signal.
Four hundred fifty microliter of cultured yeast (in 20mL rich medium) provided by Dr. Shewmaker lab was incubated at 30C at 99% humidity for 3hr. The culture was then spun down at 4000rpm for 5min and the cell pellet was resuspended in 2mL of Sdmin Media + ALU(330) + 2.5% Raffinose. One hundred microliter of the suspension was added to 900uL of water and OD of the solution was obtained. Twenty mL of responding medium (provided by Shewmaker lab) + 2.5% raffinose was added to ensure cell density of 0.1; the solution was incubated overnight. Working cell solution (FUS-yeast in Sdmi + Sdmi + 1X ALU + 2% galactose media) was prepared (final OD at 0.005) and 3uL was dispensed in a 1536-well Aurora high based clear bottom assay plates. Controls and library compounds (at various final concentrations from 40uM to 0.32uM) were added using a 1536-well pin array using the Kalypsys pin-tool. The plates were then incubated for 24hrs in a cell-culture incubator (30C; 99% humidity). Absorbance at 600nm was then read using the PerkinElmer ViewLux plate reader.
`CC(C)(C)OC(=O)N1CCC(N(C(=O)c2ccccc2)c2ccc(F)cc2)CC1`: the growth rescue (activation) is inactive: -9.63%.

With `COc1ccc(C(=O)NCC2(N3CCCCC3)CCCCC2)c(OC)c1OC`, the growth rescue (activation) was inactive: 18.4%.

Regarding `O=c1[nH]c2ccccc2n1C1CCN(C(c2cccc3ccccc23)c2nnnn2C2CCCC2)CC1` (configuration not stated), the growth rescue (activation) is inactive: 25.6%.

For `COc1cc(C(=O)NCC2(N(C)C)CCCCC2)ccc1OC(F)F`, the growth rescue (activation) is inactive: 14.8%.

Take `CCOC(=O)N1CCC(Nc2cccc(C)c2)CC1`: the growth rescue (activation) was inactive: -8.18%.

Regarding `O=c1[nH]c2ccccc2n1C1CCN(C(c2ccccc2)c2nnnn2C2CCCCC2)CC1` (configuration not stated), the growth rescue (activation) is inactive: 17.2%.

Consider `O=C(NCC1(N2CCCCC2)CCCCC1)c1ccc(F)cc1`, for which the growth rescue (activation) was inactive: -0.403%.

With `CCCCn1nnnc1C(c1cc2ccccc2o1)N1CCC(n2c(=O)[nH]c3ccccc32)CC1` (configuration not stated), the growth rescue (activation) is inactive: 11.4%.

With `O=P1(N(CCCl)CCCl)SCCCS1`, the growth rescue (activation) is inactive: 24.4%.

As for `CCCCOc1ccc(C(=O)NCC2(N3CCOCC3)CCCCC2)cc1`, the growth rescue (activation) is inactive: 8.83%.

Regarding `COc1ccc(NC2CCN(CCc3ccccc3)CC2)c(OC)c1`, the growth rescue (activation) is inactive: 17.4%.

Turning to `CCOC(=O)N1CCC(Nc2ccc(F)cc2)CC1`, the growth rescue (activation) was inactive: -12.4%.

With `COc1ccccc1C(=O)NCC1(N2CCOCC2)CCCCC1`, the growth rescue (activation) was inactive: -11.7%.

On to `CCOc1ccc(C)cc1CN(CCCl)CCCl`, for which the growth rescue (activation) was inactive: -0.668%.

For the compound `O=C(NCC1(N2CCOCC2)CCCCC1)c1ccc(Cl)cc1`, the growth rescue (activation) is inactive: -29.1%.

With `CC(C)(C)n1nnnc1C(c1ccccc1)N1CCC(n2c(=O)[nH]c3ccccc32)CC1` (configuration not stated), the growth rescue (activation) was inactive: -3%.

`O=C1CCN(Cc2ccccc2)CC1`: the growth rescue (activation) is inactive: 10.8%.

Take `CC(C)c1ccc(C(=O)NCC2(N3CCOCC3)CCCCC2)cc1`: the growth rescue (activation) was inactive: 8.49%.

Consider `COc1ccc(NC2CCN(C(=O)OC(C)(C)C)CC2)cc1`, for which the growth rescue (activation) is inactive: 3.81%.

On to `COc1cc(C(=O)NCC2(N3CCCCC3)CCCCC2)ccc1OC(F)F`, for which the growth rescue (activation) was inactive: 2.27%.

Take `O=C(NCC1(N2CCOCC2)CCCCC1)c1cc(=O)[nH]c2ccccc12`: the growth rescue (activation) is inactive: -20.7%.

Take `CCCOc1cccc(C(=O)NCC2(N3CCOCC3)CCCCC2)c1`: the growth rescue (activation) is inactive: -3.03%.

For `O=[N+]([O-])c1cc([N+](=O)[O-])c(NCC2CCS(=O)(=O)C2)c([N+](=O)[O-])c1` (configuration not stated), the growth rescue (activation) is inactive: 1.82%.

Turning to `O=C(NCC1(N2CCCCC2)CCCCC1)c1cccc([N+](=O)[O-])c1`, the growth rescue (activation) was inactive: -35%.

Take `CCOc1ccc(C(=O)NCC2(N3CCOCC3)CCCCC2)cc1`: the growth rescue (activation) was inactive: -9.7%.

As to `CSc1ccc(C(=O)NCC2(N3CCOCC3)CCCCC2)cc1`, the growth rescue (activation) was inactive: 15.5%.

For the compound `CCN1CCC(Nc2ccc(Cl)cc2)CC1`, the growth rescue (activation) was inactive: 8.71%.

On to `N#CC1(Nc2ccccc2)CCN(CCc2ccccc2)CC1`, for which the growth rescue (activation) is inactive: -37.9%.

With `O=c1[nH]c2ccccc2n1C1CCN(C(c2ccccc2OC(F)(F)F)c2nnnn2C2CCCC2)CC1` (configuration not stated), the growth rescue (activation) was inactive: 10.1%.

Turning to `O=C(NCC1(N2CCCCC2)CCCCC1)c1ccc(OC(F)F)cc1`, the growth rescue (activation) was inactive: -2.7%.

In the case of `Cc1ccc(C(=O)NCC2(N(C)C)CCCCC2)o1`, the growth rescue (activation) was inactive: -47.2%.

For the compound `CCCCOc1ccccc1C(=O)NCC1(N2CCOCC2)CCCCC1`, the growth rescue (activation) was inactive: 11.5%.

Turning to `CCCOc1ccc(C(=O)NCC2(N(C)C)CCCCC2)cc1OC`, the growth rescue (activation) was inactive: 17.4%.

With `O=C(NCC1(N2CCOCC2)CCCCC1)c1ccccc1Br`, the growth rescue (activation) was inactive: -0.802%.

Consider `O=[N+]([O-])c1cc([N+](=O)[O-])c(Nc2ccc(Cl)cc2)c([N+](=O)[O-])c1`, for which the growth rescue (activation) is inactive: 1.45%.

In the case of `COc1ccc(C(c2nnnn2C2CCCC2)N2CCC(n3c(=O)[nH]c4ccccc43)CC2)cc1` (configuration not stated), the growth rescue (activation) is inactive: 27.6%.

For `COc1ccc2c(c1O)-c1c(O)c(OC)cc3c1[C@H](C2)[N+](C)(C)CC3.O=[N+]([O-])c1cc([N+](=O)[O-])c([O-])c([N+](=O)[O-])c1[O-]`, the growth rescue (activation) is inactive: 0.554%.

For `O=C(OC1CN2CCC1CC2)c1ccc([N+](=O)[O-])cc1` (configuration not stated), the growth rescue (activation) was inactive: 13.5%.

As to `COc1cc(OC)c(C(=O)NCC2(N(C)C)CCCCC2)cc1OC`, the growth rescue (activation) was inactive: 5.55%.

As to `CCC(c1nnnn1C(C)(C)C)N1CCC(n2c(=O)[nH]c3ccccc32)CC1` (configuration not stated), the growth rescue (activation) was inactive: 4.97%.

As for `O=C(NCC1(N2CCOCC2)CCCCC1)c1cc(F)c(F)cc1Cl`, the growth rescue (activation) was inactive: -28.4%.

In the case of `CCN(CC)CCCNc1ccccc1[N+](=O)[O-].O=[N+]([O-])c1cc([N+](=O)[O-])c(O)c([N+](=O)[O-])c1`, the growth rescue (activation) was inactive: -13.7%.

In the case of `COC(=O)C1(Nc2ccccc2)CCN(Cc2ccccc2)CC1`, the growth rescue (activation) is inactive: -12.8%.

In the case of `COc1ccc(CN(CCCl)CCCl)cc1Cl`, the growth rescue (activation) was inactive: 25.8%.

`O=[N+]([O-])c1cc([N+](=O)[O-])c(OC2CCCCC2O)c([N+](=O)[O-])c1` (configuration not stated): the growth rescue (activation) was inactive: 27.1%.

With `CN(C)c1cccc(C(=O)NCC2(N3CCCCC3)CCCCC2)c1`, the growth rescue (activation) was inactive: -1.42%.

With `CC(C)c1ccc(NC2CCN(C(=O)OC(C)(C)C)CC2)cc1`, the growth rescue (activation) is inactive: 23.8%.

(Values after PubChem BioAssay AID1347120 (National Center for Advancing Translational Sciences (NCATS), 2019).)
